Test results published in paper PMC4556315.

Molecular target: NO66^176–C mutant M2 fused to the SUMO tag (human) (UniProt Q9H6W3)
Test: ITC; 287 K; 40 µl GST-Rpl8^193–C (270 µM stock) injected into 15 µM NO66 protein in buffer D (50 mM Tris-HCl pH 7.5, 300 mM NaCl, 20 µM NiCl2) with 60 µM αKG; one-site binding model

- Kd: 4.67 µM
Substance: GST-Rpl8^193–C (from UniProt P62917 193-257) (domain or fragment)
